From patent US8921306B2, “Nociceptin mimetics” (The University of Queensland, priority 2010, dated 2014)

How the values were obtained:
circular dichroism = conditions: 10 mM phosphate; pH 7.4; 22 °C; 50-400 uM
[1] = Circular dichroism spectroscopy (helicity); format: physicochemical; conditions: for θ222/208 (buffer) / fH (buffer): 10 mM phosphate buffer (pH 7.4) at 22° C.; for fH (buffer): fH calculated based on θ at 222 nm
Protocol: CD measurements were performed using a Jasco model J-710 spectropolarimeter which was routinely calibrated with (1S)-(+)-10-camphorsulfonic acid. A stock solution of 1-2 mg of peptide was dissolved in 1 mL of water. Separate 500 μL solutions of 50, 100, 200 and 400 μM were then prepared using an appropriate amount of stock solution and making up the different with 10 mM Phosphate Buffer (final pH 7.1). […] Jasco quartz cell over the wavelength range 260-185 nm at 100 nm/min. with a bandwidth of 1.0 nm, response time of 2 s, resolution step width of 1 nm and sensitivity of 20-50 Mdeg. Each spectrum represents the average of 5 scans. Spectra were analyzed using the spectral analysis software and smoothed using ‘adaptive smoothing’ function. Concentrations were determined using the PULCON method. [Wider, Dreier, 2006, J. Am. Chem. Soc. 128:2571-2576]
The incorporation of two lactam bridges induced appreciable helicity, monitored at 222 nm, and was calculated to range between 32-77% helicity. By comparison, the unconstrained nociceptin peptides (SEQ ID NOs:1-5, 9 and 10) had less than 6% α-helicity in water. […] This is due to the fact that residues 1-6 (or 1-5 in 6) are not constrained and would not be expected to be in a helical conformation as they feature amino acids that have little or no propensity to adopt helices in proteins. To determine whether the exocyclic regions were the sole cause of low helicity, SEQ ID NO:15 without the N-terminal message was investigated further. This 12-residue peptide features eight residues (K, R, Q) known to favor α-helicity in proteins, and was 60% helical in phosphate buffer by CD spectral analysis. The serine residue is conserved within the sequence of many of these peptides and is known to be a helix breaker.

ORL-1 receptor = target: T1, ORL-1 receptor (Mus musculus, UniProt P35377); test: Agonist functional activity assessed by ERK phosphorylation (pERK) in Neuro-2a cells; format: cell-based
T1 construct: Neuro-2a cells were a gift from Professor John Mattick's laboratory; endogenous in cells; host or cells: Neuro-2a cells
Protocol: Neuro-2a cells were a gift from Professor John Mattick's laboratory (Institute of Molecular Bioscience, University of Queensland) and were cultured in Gibco® DMEM (Invitrogen, CA, USA) supplemented with 10% FBS (Invitrogen, CA, USA), GIBCO® Pen/Strep (50 units/mL penicillin and 50 μg/mL streptomycin, Invitrogen, CA, USA) and GIBCO® NEAA (1× concentration, Invitrogen, CA, USA). Cells were split 1:10 every 3 days.
All cells were incubated at 37° C. and 5% CO2. When treated with pertussis toxin (PTX, catalogue number P7208, Sigma-Aldrich, NY, USA), cells were incubated with 500 ng/mL for 15 hours before use. Cells treated with MEK inhibitor PD98059 (catalogue number PHZ1164, Invitrogen, CA, USA) were preincubated with 50 μM for 1 hour before use.
Cells were placed in 12-well plates (NUNC™, NY, USA) and allowed to adhere for 24-36 h. […] For agonist assays, cells were challenged with compounds for 35 minutes and incubated at 37° C. (5% CO2).
Membranes were washed 3×10 minutes with TBE (with 0.1% Tween-20) and incubated with a primary antibody. For pERK, rabbit polyclonal ERK1+2 [pTpY185/187] […] Instead, rabbit IgG Phospho-ERK1 (T202/Y204)/ERK2 (T185/Y187) (1:2000, catalogue number AF1018, R&D Systems, MN, USA) was used. […] After multiple washes, the membranes were developed using ECL Detection Solution (Amersham Biosciences) and visualized using photographic film. Radiography was quantified using ImageJ (ImageI 1.36b, NIH).
pERK and total ERK concentrations were determined using a modified protocol for the AlphaScreen Surefire Assay. The modified protocol used half the volume of reagents recommended in the manufacturers' protocol with 2 μL of cell extract in both pERK and total ERK assays. The ratio of pERK to total ERK was determined using equation 1 and normalized to control. For agonist responses, the controls used were PBS (0%) and 1 μM nociceptin1-17-OH (100%). For antagonist responses, the controls used were PBS (100%) and 100 nM nociceptin1-17-NH2 (100%).
Concentration responses were analyzed using non-linear regression (variable slope) (Prism5, GraphPad Software) and data is presented as either EC50 (for agonists) or IC50 (antagonists).
Helix constrained and unconstrained peptides were pre-screened using the pERK assay at a single concentration.

SMILES | helicity (circular dichroism) [frac] | also measured
C[C@@H](O)[C@H](NC(=O)[C@H](Cc1ccccc1)NC(=O)CNC(=O)CNC(=O)CNCc1ccccc1)C(=O)NCC(=O)N[C@H]1CCCCNC(=O)C[C@@H](C(=O)N[C@@H](CCCNC(=N)N)C(=O)N[C@@H](CCCCN)C(=O)N[C@H]2CCCCNC(=O)C[C@@H](C(N)=O)NC(=O)[C@H](CCC(N)=O)NC(=O)[C@H](CC(N)=O)NC(=O)[C@H](CCCCN)NC2=O)NC(=O)[C@H](CO)NC(=O)[C@H](CCCCN)NC(=O)[C@H](CCCNC(=N)N)NC1=O | 0.41 | –
C[C@@H]1NC(=O)[C@@H](NC(=O)[C@H](CCCCN)NC(=O)[C@H](CCCNC(=N)N)NC(=O)[C@@H]2CC(=O)NCCCC[C@H](NC(=O)CNC(=O)[C@@H](NC(=O)[C@H](Cc3ccccc3)NC(=O)CNC(=O)CNC(=O)[C@@H](N)Cc3ccccc3)[C@@H](C)O)C(=O)N[C@@H](CCCNC(=N)N)C(=O)N[C@@H](CCCCN)C(=O)N[C@@H](CO)C(=O)N2)CCCCNC(=O)C[C@@H](C(N)=O)NC(=O)[C@H](CCC(N)=O)NC(=O)[C@H](CC(N)=O)NC1=O | 0.32 | –
CC(C)C[C@H](NC(=O)[C@H](CCCCN)NC(=O)[C@H](CCCNC(=N)N)NC(=O)[C@H](C)NC(=O)[C@H](CO)NC(=O)[C@H](CCCCN)NC(=O)[C@H](CCCNC(=N)N)NC(=O)[C@H](C)NC(=O)CNC(=O)[C@@H](NC(=O)[C@H](Cc1ccccc1)NC(=O)CNC(=O)CNC(=O)CNCc1ccccc1)[C@@H](C)O)C(=O)N[C@@H](CCCCN)C(=O)N[C@@H](CC(N)=O)C(=O)N[C@@H](CCC(N)=O)C(N)=O | 0.04 | –
C[C@H](NC(=O)[C@H](CCC(N)=O)NC(=O)[C@H](CC(N)=O)NC(=O)[C@H](C)NC(=O)[C@H](C)NC(=O)[C@H](CCCCN)NC(=O)[C@H](CCCNC(=N)N)NC(=O)[C@H](C)NC(=O)[C@H](CO)NC(=O)[C@H](CCCCN)NC(=O)[C@H](CCCNC(=N)N)NC(=O)[C@H](C)NC(=O)CNC(=O)[C@@H](NC(=O)[C@H](Cc1ccccc1)NC(=O)CNC(=O)CNC(=O)[C@@H](N)Cc1ccccc1)[C@@H](C)O)C(N)=O | 0.02 | –
C[C@@H](O)[C@H](N)C(=O)NCC(=O)N[C@H]1CCCCNC(=O)C[C@@H](C(=O)N[C@@H](CCCNC(=N)N)C(=O)N[C@@H](CCCCN)C(=O)N[C@H]2CCCCNC(=O)C[C@@H](C(N)=O)NC(=O)[C@H](CCC(N)=O)NC(=O)[C@H](CC(N)=O)NC(=O)[C@H](CCCCN)NC2=O)NC(=O)[C@H](CO)NC(=O)[C@H](CCCCN)NC(=O)[C@H](CCCNC(=N)N)NC1=O | 0.34 | –
C[C@@H](O)[C@H](NC(=O)[C@H](Cc1ccc(F)cc1)NC(=O)CNC(=O)CNC(=O)[C@@H](N)Cc1ccccc1)C(=O)NCC(=O)N[C@H]1CCCCNC(=O)C[C@@H](C(=O)N[C@@H](CCCNC(=N)N)C(=O)N[C@@H](CCCCN)C(=O)N[C@H]2CCCCNC(=O)C[C@@H](C(N)=O)NC(=O)[C@H](CCC(N)=O)NC(=O)[C@H](CC(N)=O)NC(=O)[C@H](CCCCN)NC2=O)NC(=O)[C@H](CO)NC(=O)[C@H](CCCCN)NC(=O)[C@H](CCCNC(=N)N)NC1=O | 0.45 | –
CC(C)C[C@H](NC(=O)[C@H](CCCCN)NC(=O)[C@H](CCCNC(=N)N)NC(=O)[C@H](C)NC(=O)[C@H](CO)NC(=O)[C@H](CCCCN)NC(=O)[C@H](CCCNC(=N)N)NC(=O)[C@H](C)NC(=O)CNC(=O)[C@@H](NC(=O)[C@H](Cc1ccc(F)cc1)NC(=O)CNC(=O)CNC(=O)CNCc1ccccc1)[C@@H](C)O)C(=O)N[C@@H](CCCCN)C(=O)N[C@@H](CC(N)=O)C(=O)N[C@@H](CCC(N)=O)C(N)=O | 0.03 | –
CC(=O)N[C@H]1CCCCNC(=O)C[C@@H](C(=O)N[C@@H](CCCNC(=N)N)C(=O)N[C@@H](CCCCN)C(=O)N[C@H]2CCCCNC(=O)C[C@@H](C(N)=O)NC(=O)[C@H](CCC(N)=O)NC(=O)[C@H](CC(N)=O)NC(=O)[C@H](CCCCN)NC2=O)NC(=O)[C@H](CO)NC(=O)[C@H](CCCCN)NC(=O)[C@H](CCCNC(=N)N)NC1=O | 0.6 | –
CC(C)C[C@@H]1NC(=O)[C@H](CCCCN)NC(=O)[C@H](CCCNC(=N)N)NC(=O)[C@@H](NC(=O)[C@@H]2CC(=O)NCCCC[C@H](NC(=O)[C@@H](NC(=O)[C@H](Cc3ccccc3)NC(=O)CNC(=O)CNC(=O)[C@@H](N)Cc3ccccc3)[C@@H](C)O)C(=O)N[C@@H](C)C(=O)N[C@@H](CCCNC(=N)N)C(=O)N[C@@H](CCCCN)C(=O)N2)CCCCNC(=O)C[C@@H](C(N)=O)NC1=O [compound 6] | – | θ222/208 (buffer) [1]: 1.00; fH (buffer) [1]: 0.54; Emax (ORL-1 receptor; N2a, agonist pERK, controls PBS (0%) and 1 μM nociceptin1-17-OH (100%)): 96 ± 8%; -log EC50 ± SEM (ORL-1 receptor; agonist pERK activity, Neuro-2a cells, 35 minutes): 8.51 ± 0.14
CC(C)C[C@H](NC(=O)[C@H](CCCCN)NC(=O)[C@H](CCCNC(=N)N)NC(=O)[C@H](C)NC(=O)[C@H](CO)NC(=O)[C@H](CCCCN)NC(=O)[C@H](CCCNC(=N)N)NC(=O)[C@H](C)NC(=O)CNC(=O)[C@@H](NC(=O)[C@H](Cc1ccccc1)NC(=O)CNC(=O)CNC(=O)[C@@H](N)Cc1ccccc1)[C@@H](C)O)C(=O)N[C@@H](C)C(=O)N[C@@H](CC(N)=O)C(=O)N[C@@H](CCC(N)=O)C(N)=O | 0.02 | –
CC(C)C[C@H](NC(=O)[C@H](CCCCN)NC(=O)[C@H](CCCNC(=N)N)NC(=O)[C@H](C)NC(=O)[C@H](CO)NC(=O)[C@H](CCCCN)NC(=O)[C@H](CCCNC(=N)N)NC(=O)[C@H](C)NC(=O)CNC(=O)[C@@H](NC(=O)[C@H](Cc1ccc(F)cc1)NC(=O)CNC(=O)CNC(=O)[C@@H](N)Cc1ccccc1)[C@@H](C)O)C(=O)N[C@@H](CCCCN)C(=O)N[C@@H](CC(N)=O)C(=O)N[C@@H](CCC(N)=O)C(N)=O | 0.02 | –
CC(=O)NCCCC[C@H](NC(=O)CNC(=O)[C@@H](NC(=O)[C@H](Cc1ccccc1)NC(=O)CNC(=O)CNC(=O)[C@@H](N)Cc1ccccc1)[C@@H](C)O)C(=O)N[C@@H](CCCNC(=N)N)C(=O)N[C@@H](CCCCN)C(=O)N[C@@H](CO)C(=O)N[C@@H](CC(N)=O)C(=O)N[C@@H](CCCNC(=N)N)C(=O)N[C@@H](CCCCN)C(=O)N[C@@H](CCCCNC(C)=O)C(=O)N[C@@H](C)C(=O)N[C@@H](CC(N)=O)C(=O)N[C@@H](CCC(N)=O)C(=O)N[C@@H](CC(N)=O)C(N)=O | 0.03 | –
CC(C)C[C@@H]1NC(=O)[C@H](CCCCN)NC(=O)[C@H](CCCNC(=N)N)NC(=O)[C@@H](NC(=O)[C@@H]2CC(=O)NCCCC[C@H](NC(=O)[C@@H](NC(=O)[C@H](Cc3ccccc3)NC(=O)CNC(=O)CNC(=O)[C@@H](N)Cc3ccccc3)[C@@H](C)O)C(=O)N[C@@H](C)C(=O)N[C@@H](CCCNC(=N)N)C(=O)N[C@@H](CCCCN)C(=O)N2)CCCCNC(=O)C[C@@H](C(N)=O)NC1=O | 0.54 | –
C[C@H](NC(=O)CNC(=O)[C@@H](NC(=O)[C@H](Cc1ccccc1)NC(=O)CNC(=O)CNC(=O)CNCc1ccccc1)[C@@H](C)O)C(=O)N[C@@H](CCCNC(=N)N)C(=O)N[C@@H](CCCCN)C(=O)N[C@@H](CO)C(=O)N[C@@H](C)C(=O)N[C@@H](CCCNC(=N)N)C(=O)N[C@@H](CCCCN)C(N)=O [compound 11] | 0.03 | θ222/208 (buffer) [1]: −0.10; fH (buffer) [1]: 0.03; fH (TFE*) ([1]; buffer: TFE 50:50, 22° C.): 0.10
